Source: article PMC11089510, “Unexpected Noncovalent Off-Target Activity of Clinical BTK Inhibitors Leads to Discovery of a Dual NUDT5/14 Antagonist” (Journal of Medicinal Chemistry, 2024)

Biological target: NUDT5 (Homo sapiens, UniProt Q9UKK9)
Test: crystal structure; NUDT5 (26 mg/mL) cocrystallised with ibrutinib (1) (2.5 mM, 25 mM MgCl2; 0.1 M tris pH 8.0, 33% PEG4000, 0.2 M MgCl2) or with compound 9 (0.2 M ammonium acetate, 0.1 M citrate pH 5.5, 30% PEG4000); sitting drop, 18 °C; dimer of chains A and B

stoichiometry N: 2
Substance: NUDT5 (from UniProt Q9UKK9 1-208) (enzyme)
